Chains of the proteins cited; added tags and fusions are not shown.
UniProt P50750, whole entry: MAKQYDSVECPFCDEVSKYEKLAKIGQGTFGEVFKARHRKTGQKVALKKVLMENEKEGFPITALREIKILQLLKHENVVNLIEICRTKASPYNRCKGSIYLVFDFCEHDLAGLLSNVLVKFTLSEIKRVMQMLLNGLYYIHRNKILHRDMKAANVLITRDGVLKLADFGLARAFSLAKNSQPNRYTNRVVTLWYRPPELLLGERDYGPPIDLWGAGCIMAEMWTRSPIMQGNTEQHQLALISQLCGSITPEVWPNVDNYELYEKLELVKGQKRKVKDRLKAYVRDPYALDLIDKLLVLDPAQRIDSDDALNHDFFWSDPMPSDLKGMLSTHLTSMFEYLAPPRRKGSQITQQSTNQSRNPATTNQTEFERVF
UniProt Q15746, whole entry: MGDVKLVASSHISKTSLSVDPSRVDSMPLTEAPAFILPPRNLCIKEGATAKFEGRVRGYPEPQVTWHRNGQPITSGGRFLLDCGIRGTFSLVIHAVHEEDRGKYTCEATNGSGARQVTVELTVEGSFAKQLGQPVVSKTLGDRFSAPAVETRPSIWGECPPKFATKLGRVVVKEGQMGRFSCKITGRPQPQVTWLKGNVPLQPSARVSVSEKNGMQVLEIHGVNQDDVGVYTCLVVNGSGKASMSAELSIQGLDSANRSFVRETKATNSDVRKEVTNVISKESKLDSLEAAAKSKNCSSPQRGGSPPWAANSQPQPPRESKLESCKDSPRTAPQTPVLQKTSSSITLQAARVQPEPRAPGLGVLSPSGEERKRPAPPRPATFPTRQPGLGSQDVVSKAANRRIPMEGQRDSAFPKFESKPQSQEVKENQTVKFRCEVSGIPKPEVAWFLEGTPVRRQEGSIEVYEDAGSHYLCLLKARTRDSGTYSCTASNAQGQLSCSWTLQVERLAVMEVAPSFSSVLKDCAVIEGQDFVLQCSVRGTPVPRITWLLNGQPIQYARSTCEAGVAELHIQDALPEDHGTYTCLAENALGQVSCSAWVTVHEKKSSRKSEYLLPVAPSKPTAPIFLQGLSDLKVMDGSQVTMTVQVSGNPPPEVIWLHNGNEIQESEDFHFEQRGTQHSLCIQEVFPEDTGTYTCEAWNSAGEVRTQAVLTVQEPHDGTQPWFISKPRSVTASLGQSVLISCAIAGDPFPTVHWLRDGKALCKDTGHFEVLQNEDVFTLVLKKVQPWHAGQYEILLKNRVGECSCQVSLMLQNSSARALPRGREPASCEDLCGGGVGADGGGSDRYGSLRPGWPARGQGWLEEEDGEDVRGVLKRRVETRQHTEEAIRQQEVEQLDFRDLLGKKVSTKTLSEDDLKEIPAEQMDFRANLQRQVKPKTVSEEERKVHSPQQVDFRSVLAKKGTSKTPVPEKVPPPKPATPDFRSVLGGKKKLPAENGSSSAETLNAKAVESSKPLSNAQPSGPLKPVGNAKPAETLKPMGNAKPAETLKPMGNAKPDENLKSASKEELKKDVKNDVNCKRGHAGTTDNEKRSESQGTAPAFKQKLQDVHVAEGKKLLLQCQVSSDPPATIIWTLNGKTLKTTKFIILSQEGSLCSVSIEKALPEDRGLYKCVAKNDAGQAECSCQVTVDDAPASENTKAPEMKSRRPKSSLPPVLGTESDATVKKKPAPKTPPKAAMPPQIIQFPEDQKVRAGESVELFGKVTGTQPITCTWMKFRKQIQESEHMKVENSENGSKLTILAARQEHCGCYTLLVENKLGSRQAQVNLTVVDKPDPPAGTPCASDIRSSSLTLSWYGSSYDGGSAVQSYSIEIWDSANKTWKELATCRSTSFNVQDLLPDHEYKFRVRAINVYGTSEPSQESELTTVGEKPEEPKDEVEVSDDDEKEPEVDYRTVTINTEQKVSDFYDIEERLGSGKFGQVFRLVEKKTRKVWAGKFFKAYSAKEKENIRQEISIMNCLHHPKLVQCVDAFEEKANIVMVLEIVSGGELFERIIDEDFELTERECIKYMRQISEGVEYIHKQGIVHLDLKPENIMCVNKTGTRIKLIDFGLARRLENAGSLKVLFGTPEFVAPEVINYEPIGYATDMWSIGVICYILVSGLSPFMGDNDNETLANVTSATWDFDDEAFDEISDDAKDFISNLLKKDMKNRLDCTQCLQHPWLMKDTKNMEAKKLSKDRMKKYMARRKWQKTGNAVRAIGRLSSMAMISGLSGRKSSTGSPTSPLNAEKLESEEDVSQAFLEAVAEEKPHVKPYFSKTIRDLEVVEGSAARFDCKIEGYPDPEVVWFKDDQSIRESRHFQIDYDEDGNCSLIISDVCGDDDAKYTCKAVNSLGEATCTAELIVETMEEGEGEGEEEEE

According to ChEMBL document CHEMBL1145498, “A systematic interaction map of validated kinase inhibitors with Ser/Thr kinases” (Proc Natl Acad Sci U S A, 2007):

Tests used:
[1] = molecular target: Cyclin-dependent kinase 9 (Homo sapiens, UniProt P50750); assay: Inhibition of Cdk9
[2] = molecular target: Myosin light chain kinase, smooth muscle (Homo sapiens, UniProt Q15746); assay: Inhibition of human myosin light chain kinase

Row | IC50 [1] | Compound | Ki [2]
1 | 9 nM | CC(C)c1nn(-c2c(Cl)cccc2Cl)c2nc(Cc3ccc(OCCO)cc3)[nH]c(=O)c12 | 
2 |  | COC(=O)[C@]1(O)C[C@@H]2O[C@@]1(C)n1c3ccccc3c3c4c(c5c6ccccc6n2c5c31)C(=O)NC4 (single isomer, unassigned) | 17 nM
